Values joined by “and” are separate entries in the source; they are usually repeats but may differ in a detail not shown here. Equal values may be shown once.
How the values were obtained:
[1] = biological target: T1, acetylcholinesterase from electric eel (AChE) (Electrophorus electricus, UniProt O42275); experiment: Acetylcholinesterase inhibitory assay (Ellman's microplate assay); assay type: biochemical; conditions: chemical constituents; Mean ± SD (n = 3); read-out: AChE inhibition, IC50 (converted)
T1 construct: purchased Sigma Chemicals (St. Louis, MO, USA)
Description: (§1) Acetylthiocholine iodide (ATCl), acetylcholinesterase from electric eel (AChE), 5,5'-dithiobis[2-nitrobenzoic acid] (DTNB), butyrylcholinesterase from equine serum (BChE), S-butyrylthiocholine chloride and physostigmine were purchased from Sigma Chemicals (St. Louis, MO, USA). All the other reagents used were of analytical grade.
(§2) Cholinesterase enzymes inhibitory potential of test samples was evaluated using Ellman’s microplate assay following the method described by Ahmed and Gilani with slight modifications. Physostigmine was used as positive control. Test samples and physostigmine were prepared in dimethyl sulfoxide (DMSO). The concentration of DMSO in final reaction mixture was 1%. At this concentration, DMSO has no inhibitory effect on both acetylcholinesterase and butyrylcholinesterase enzymes.
(§3) For acetylcholinesterase (AChE) inhibitory assay, 140 μL of 0.1 M sodium phosphate buffer (pH 8) was first added to a 96-wells microplate followed by 20 μL of test samples and 20 μL of 0.09 units/mL acetylcholinesterase enzyme. […] After the initiation of enzymatic reaction, absorbance of the coloured end-product was measured for 15 min using Tecan Infinite 200 Pro Microplate Spectrophotometer (Männedorf, Switzerland) at 417 nm. […]

Sequences of proteins named here, by UniProt entry; tags and fusion partners are left off. Residues count along the entry.
UniProt O42275, 24-633: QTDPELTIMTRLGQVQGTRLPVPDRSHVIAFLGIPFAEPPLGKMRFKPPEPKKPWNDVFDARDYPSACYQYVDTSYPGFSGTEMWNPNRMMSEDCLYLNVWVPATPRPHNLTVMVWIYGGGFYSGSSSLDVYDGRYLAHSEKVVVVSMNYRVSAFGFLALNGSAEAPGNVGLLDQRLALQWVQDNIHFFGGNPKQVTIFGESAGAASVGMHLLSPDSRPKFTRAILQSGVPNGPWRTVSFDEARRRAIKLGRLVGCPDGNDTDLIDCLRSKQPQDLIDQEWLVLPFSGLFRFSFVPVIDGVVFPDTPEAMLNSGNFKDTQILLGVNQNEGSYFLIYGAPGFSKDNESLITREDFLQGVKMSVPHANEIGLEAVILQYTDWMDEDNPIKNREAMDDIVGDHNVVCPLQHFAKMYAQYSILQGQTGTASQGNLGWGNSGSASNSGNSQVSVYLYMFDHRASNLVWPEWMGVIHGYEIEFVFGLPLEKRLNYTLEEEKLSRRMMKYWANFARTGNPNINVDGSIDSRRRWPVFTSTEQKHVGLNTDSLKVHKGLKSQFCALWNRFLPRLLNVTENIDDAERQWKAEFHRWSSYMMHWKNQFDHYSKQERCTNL
UniProt P81908, whole entry: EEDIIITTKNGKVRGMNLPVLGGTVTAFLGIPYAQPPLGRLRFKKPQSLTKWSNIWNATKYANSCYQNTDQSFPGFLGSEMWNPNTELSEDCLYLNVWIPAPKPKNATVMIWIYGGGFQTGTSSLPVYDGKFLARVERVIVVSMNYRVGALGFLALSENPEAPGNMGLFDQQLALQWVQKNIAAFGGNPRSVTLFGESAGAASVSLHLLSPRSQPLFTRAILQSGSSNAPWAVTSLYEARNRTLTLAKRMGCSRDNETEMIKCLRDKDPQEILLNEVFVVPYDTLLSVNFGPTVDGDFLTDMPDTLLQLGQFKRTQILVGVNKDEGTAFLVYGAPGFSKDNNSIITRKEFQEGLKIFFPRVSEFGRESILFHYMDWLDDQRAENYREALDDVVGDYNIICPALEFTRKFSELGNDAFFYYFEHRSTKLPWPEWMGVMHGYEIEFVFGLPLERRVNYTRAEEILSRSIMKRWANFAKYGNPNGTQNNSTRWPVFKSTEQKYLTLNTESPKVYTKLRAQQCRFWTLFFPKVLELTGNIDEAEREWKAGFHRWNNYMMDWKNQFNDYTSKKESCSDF

[2] = biological target: T2, butyrylcholinesterase from equine serum (BChE) (Equus caballus, UniProt P81908); experiment: Butyrylcholinesterase inhibitory assay (Ellman's microplate assay); assay type: biochemical; conditions: chemical constituents; Mean ± SD (n = 3); read-out: BChE inhibition, IC50 (converted)
T2 construct: purchased Sigma Chemicals (St. Louis, MO, USA); host or cells: equine serum
Description: as §1, §2, §3

CNC(=O)Oc1ccc2c(c1)[C@]1(C)CCN(C)[C@@H]1N2C [Physostigmine, physostigmine, reference compound]
IC50 [1]: 167 nM and 170 nM
IC50 [2]: 588 nM and 590 nM
